Values quoted from earlier work in US20070043110A1, “Nontoxic potentiation sensitization of ovarian cancer therapy by supplementary treatment with vitamins” (Summa Health System, priority 2001, published 2007).

Conditions: oral doses of 200 mg/Kg; cited from earlier work

For `CC1=CC(=O)c2ccccc2C1=O` [Vitamin K3, 2-Methyl-1,4-Naphthoquinone], the mortality is given as “No mortality”.
